We go through 21 compounds from PubChem BioAssay AID1259400 (National Center for Advancing Translational Sciences (NCATS), 2018).

Protein sequences, listed by entry. Tags and fused reporters are not part of them.
UniProt Q9HBX9, whole entry: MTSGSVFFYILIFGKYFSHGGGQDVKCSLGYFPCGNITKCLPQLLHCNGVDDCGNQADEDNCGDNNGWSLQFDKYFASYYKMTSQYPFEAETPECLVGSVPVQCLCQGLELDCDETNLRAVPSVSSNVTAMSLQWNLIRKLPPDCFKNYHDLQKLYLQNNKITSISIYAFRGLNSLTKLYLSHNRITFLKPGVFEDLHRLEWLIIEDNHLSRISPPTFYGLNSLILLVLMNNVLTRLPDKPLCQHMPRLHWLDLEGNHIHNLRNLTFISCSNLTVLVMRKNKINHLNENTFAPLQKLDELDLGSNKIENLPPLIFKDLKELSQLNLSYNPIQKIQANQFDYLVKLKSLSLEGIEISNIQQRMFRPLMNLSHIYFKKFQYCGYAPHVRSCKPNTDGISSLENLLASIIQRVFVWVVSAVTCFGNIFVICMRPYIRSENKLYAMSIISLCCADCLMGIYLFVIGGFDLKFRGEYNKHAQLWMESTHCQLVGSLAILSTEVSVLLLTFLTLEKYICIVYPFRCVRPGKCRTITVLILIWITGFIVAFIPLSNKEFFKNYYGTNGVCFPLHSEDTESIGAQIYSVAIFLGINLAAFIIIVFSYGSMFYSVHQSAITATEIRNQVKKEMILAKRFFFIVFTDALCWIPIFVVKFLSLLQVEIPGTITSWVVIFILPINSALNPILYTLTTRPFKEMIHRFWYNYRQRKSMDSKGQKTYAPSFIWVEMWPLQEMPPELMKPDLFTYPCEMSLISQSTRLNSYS

The list shows a part of the results, in another mix than the full data. Calls of active or inactive are those of the source.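 How the source made its calls: active means activity change of -60% or lower, but not beyond a set lower limit; inconclusive means change between -60% and -40%, or beyond the set limit; inactive means change above -40%.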

This assay has as its target Relaxin receptor 1 (Homo sapiens) (UniProt Q9HBX9). Put plainly: qHTS Assay for Antagonists of the Relaxin Receptor RXFP1. As to conditions: HEK293-RXFP1, relaxin-stimulated cAMP HTRF, 30 min; at 57.5 µM; stronger effect = lower value. From the text: The relaxin hormone is involved in the variety of biological functions in normal tissues and diseases. The role of relaxin is well-established in female reproduction and parturition, mammary gland and endometrial development, maintenance of myometrial quiescence during pregnancy. Relaxin signaling through its G protein-coupled receptor (GPCR) RXFP1 results in ECM remodeling through regulation of collagen deposition, cell invasiveness, proliferation and overall tissue homeostasis. […] Recombinant human relaxin (rhRlx) is currently being tested in clinical trials as a protective agent in congestive heart failure, in treating severe preeclampsia, and as an anti-fibrotic agent in various organs. […] Upon relaxin binding RXFP1 activation leads to the activation of adenylate cyclase (AC) via G?s. cAMP will activate PKA, which phosphorylates many signaling proteins. Thus, detection of cAMP increase is an easy and reliable indication of relaxin receptor activation. To screen for antagonists of the relaxin receptor, a HEK293T cell line stably transfected with RXFP1 was used. RXFP1 activation by relaxin in presence of various concentrations of tested compounds was assayed by changes in cAMP levels as detected with a time-resolved fluorescence energy transfer (TR-FRET) cAMP detection kit.
For the primary screening, we used HTRF(R) (Homogenous Time-Resolved Fluorescence) cAMP HiRange assay (Cisbio Bioassays, 62AM6PEJ). Presence of cAMP in the cell lysate disrupts binding between the Cryptate-labeled anti-cAMP and d2-labeled cAMP pair, leading to a decrease in TR-FRET signal. The libraries were screened at two doses (57microM and 11microM), followed by a confirmation of the hits at 7-point serial dilution in the range of final concentrations [57microM - 78nM]. Data were normalized to the controls for basal activity (buffer only) and 100% activity (5 nM porcine relaxin). The EC50 values were determined from concentration-response data modeled with the standard Hill equation. NCGC Assay Protocol Summary: HiHEK (Hawaiian HEK293 LGR7 stably transfected with human RXFP1) were grown in the following media: DMEM+10%FBS+Pen/Strep + Geneticin (1mg/ml). For the assay, the cells were seeded in DMEM+Pen/Strep (with no serum & selective antibiotics) at 2,100 cells/ 3microl/well with MultiDrop Combi dispenser (Thermo Scientific, Logan, UT) onto white tissue culture treated solid bottom1536-well plates (Greiner #789173-F) and allowed to attach/recover overnight at 37 degrees C, 5% CO2. Next, 23nl/well of compound solutions in DMSO were transferred into wells with a pintool (Kalypsis, San Diego, CA). […] EC80 (relaxin at 50pM final concentration) was dispensed to the rest of the plate except columns 1&2 which were used as a negative control (EC0, buffer only), 1microl/well also. The cells were stimulated by relaxin in the presence of compounds for 30 minutes at 37 degrees C, 5% CO2. The detection reagents were prepared individually by dilution in Lysis buffer (supplied with the assay kit) just prior to dispensing. 1microl/well of cAMP-d2 and 1microl/well anti-cAMP-Eu3+-Cryptate antibodies were added simultaneously with BioRAPTR FRDtrade mark Workstation (Beckman Coulter). The plates were incubated at ambient temperature for 30 minutes and, then, FRET signal was read on Envision plate reader (PerkinElmer, Waltham, MA), at wavelengths 340nm (excitation), 615nm & 665nm (emission of donor and acceptor channels respectively).
For orientation: Quantitative high-throughput screening tests each substance at several concentrations.
Turning to `CCC(CO)(C(=O)OC1CN2CCC1CC2)c1ccccc1` (stereo unspecified), the activity change, negative = inhibition is inactive: 2.03%.
To `COc1cccc(C(=O)N(c2cc(C)cc(C)c2)C2CCN(C(=O)OC(C)(C)C)CC2)c1` belongs inactive: -23.4%; to `COc1cc(OC)cc(C(=O)NCC2(N3CCOCC3)CCCCC2)c1`, inactive: -15.4%; to `CCCOc1ccc(C(=O)NCC2(N(C)C)CCCCC2)cc1`, inactive: -17.6%.
To `O=C(O)C1(Nc2ccccc2)CCN(Cc2ccccc2)CC1` belongs inactive: 4.31%.
To `CC(C)(C)OC(=O)N1CCC(Nc2ccccc2)CC1` belongs inactive: -4.19%; to `CN1CCC(Nc2ccc(F)c(Cl)c2)CC1`, inactive: -9.43%; to `CCOc1ncccc1C(=O)NCC1(N2CCOCC2)CCCCC1`, inactive: -3.78%.
Regarding `Cn1c(=O)[nH]cc(N(CCCl)CCCl)c1=O`, the activity change, negative = inhibition is inactive: -2.41%.
To `CN(C)c1ccc(C(=O)NCC2(N3CCCCC3)CCCCC2)cc1` belongs inactive: -14.8%.
To `O=C(NCC1(N2CCCCC2)CCCCC1)c1ccco1` belongs inactive: -1.58%.
Consider `Cc1ccccc1C(=O)NCC1(N(C)C)CCCCC1`, for which the activity change, negative = inhibition was inactive: 2.36%.
To `CCN1CCC(Nc2cccc(F)c2)CC1` belongs inactive: -6.71%.
To `Cc1ccccc1NC1(C#N)CCN(Cc2ccccc2)CC1` belongs inactive: 13.2%; to `Cc1ccc(NC2(C#N)CCN(Cc3ccccc3)CC2)cc1`, inactive: -20.7%.
As to `Cc1ccc(Nc2c([N+](=O)[O-])cc([N+](=O)[O-])cc2[N+](=O)[O-])cc1`, the activity change, negative = inhibition was inactive: 3.15%.
As for `Fc1ccccc1NC1CCN(Cc2ccccc2)CC1`, the activity change, negative = inhibition is inactive: -1.04%.
As for `Cc1ccc(C(=O)NCC2(N3CCCCC3)CCCCC2)o1`, the activity change, negative = inhibition was inactive: 3.49%.
On to `COc1cc(OC)cc(C(=O)NCC2(N3CCCCC3)CCCCC2)c1`, for which the activity change, negative = inhibition is inactive: 5.37%.
To `CC(=O)N(c1ccccc1)C1CCNCC1` belongs inactive: 0.195%; to `CN(C)C1(CNC(=O)c2ccc(C(C)(C)C)cc2)CCCCC1`, inactive: -17.6%.
